{"source": "patent US5196424A", "about": "“N-[2-amino-4-substituted[[(pyrrollo or pyrido)[2,3-d]pyrimidinyl]-alkyl]benzoyl]-L-glutamic acids” (priority 1992, dated 1993)", "molecular_target": "T1, human dihydrofolate reductase (DHFR) (Homo sapiens, UniProt P00374)", "T1 construct": "was obtained from human leukemic lymphoblasts (WI-L2/M4 cells); endogenous in cells; host or cells: WI-L2/M4 human leukemic lymphoblasts; enzyme purified from the cells according to Delcamp et al., Biochemistry 22, 633-639 (1983)", "T1 sequence (P00374 1-187)": "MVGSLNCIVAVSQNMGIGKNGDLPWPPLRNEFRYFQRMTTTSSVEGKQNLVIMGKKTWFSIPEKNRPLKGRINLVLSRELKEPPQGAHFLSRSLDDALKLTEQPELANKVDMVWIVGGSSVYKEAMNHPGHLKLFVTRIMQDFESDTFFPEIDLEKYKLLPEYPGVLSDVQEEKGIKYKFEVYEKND", "assay": "Inhibition of isolated human dihydrofolate reductase (Table III)", "assay_type": "biochemical"}
{"molecule": "Nc1ncc2c(n1)NCC(CCc1ccc(C(=O)N[C@@H](CCC(=O)O)C(=O)O)cc1)C2", "note": "(stereo partly drawn) [Example 7, N-[2-amino-[[tetrahydropyrido[2,3-d]-pyrimidin-6-yl]-ethyl]benzoyl]-L-glutamic acid]", "values": [{"measurement": "IC50", "result": 64, "unit": "nM"}]}
